The source of these data is US9598411B2, “Substituted benzimidazole-type piperidine compounds and uses thereof” (priority 2012, dated 2017).

SMILES strings stand for the structures. pEC50, pKi: −log10 of the molar value. Where only a bound is given, the exact number is not on record here.

The target of one assay is delta opioid receptor (Homo sapiens (Human), UniProt P41143). Put plainly: In vitro delta-opioid receptor binding assay ([3H]-Naltrindole displacement).
Assay [1] addresses T1, human opioid receptor-like (ORL-1) receptor (Homo sapiens (Human), UniProt P41146). The assay can be described thus: In vitro ORL-1 receptor [35S]GTPγS functional assay. The format is biochemical.
In assay [2] the target is T1, human opioid receptor-like (ORL-1) receptor. The assay can be described thus: In vitro ORL-1 receptor binding assay ([3H]-nociceptin displacement).
Assay [3] has as its target human kappa opioid receptor (Homo sapiens (Human), UniProt P41145). Put plainly: In vitro kappa-opioid receptor binding assay ([3H]-U69,593 displacement).

`O=C(O)CO/N=C/c1nc2ccccc2n1C1C[C@H]2CCC[C@@H](C1)N2[C@H]1C[C@@H]2CCC[C@@H](C2)C1` (stereo partly drawn): the results for the pKi (on delta opioid receptor; in assay [2]; in assay [3]) were 5.40, 6.99 and 5.81, respectively. In assay [1] (procedure of Example 22), the “GTPγS ORL-1 Emax [mean ± SEM]” value is listed as 34.7 ± 1.5%. Further, the pEC50 in assay [1] (read-out: GTPγS ORL-1 EC50 [mean ± SEM], procedure of Example 22) was 7.07.
With `OCc1nc2ccccc2n1C1C[C@H]2CCC[C@@H](C1)N2[C@H]1C[C@@H]2CCC[C@@H](C2)C1` (stereo partly drawn), the pKi at delta opioid receptor was < 4.70.
